According to PubChem BioAssay AID1645854 (Buhrlage Lab, Dana-Farber Cancer Institute and Novartis …, 2021):
The list shows a part of the results, in another mix than the full data. Calls of active or inactive are those of the source. Rule as the data show it: active = inhibition above about 30%; inactive = the rest.

Chains of the proteins cited; added tags and fusions are not shown.
UniProt Q93009, whole entry, looked up: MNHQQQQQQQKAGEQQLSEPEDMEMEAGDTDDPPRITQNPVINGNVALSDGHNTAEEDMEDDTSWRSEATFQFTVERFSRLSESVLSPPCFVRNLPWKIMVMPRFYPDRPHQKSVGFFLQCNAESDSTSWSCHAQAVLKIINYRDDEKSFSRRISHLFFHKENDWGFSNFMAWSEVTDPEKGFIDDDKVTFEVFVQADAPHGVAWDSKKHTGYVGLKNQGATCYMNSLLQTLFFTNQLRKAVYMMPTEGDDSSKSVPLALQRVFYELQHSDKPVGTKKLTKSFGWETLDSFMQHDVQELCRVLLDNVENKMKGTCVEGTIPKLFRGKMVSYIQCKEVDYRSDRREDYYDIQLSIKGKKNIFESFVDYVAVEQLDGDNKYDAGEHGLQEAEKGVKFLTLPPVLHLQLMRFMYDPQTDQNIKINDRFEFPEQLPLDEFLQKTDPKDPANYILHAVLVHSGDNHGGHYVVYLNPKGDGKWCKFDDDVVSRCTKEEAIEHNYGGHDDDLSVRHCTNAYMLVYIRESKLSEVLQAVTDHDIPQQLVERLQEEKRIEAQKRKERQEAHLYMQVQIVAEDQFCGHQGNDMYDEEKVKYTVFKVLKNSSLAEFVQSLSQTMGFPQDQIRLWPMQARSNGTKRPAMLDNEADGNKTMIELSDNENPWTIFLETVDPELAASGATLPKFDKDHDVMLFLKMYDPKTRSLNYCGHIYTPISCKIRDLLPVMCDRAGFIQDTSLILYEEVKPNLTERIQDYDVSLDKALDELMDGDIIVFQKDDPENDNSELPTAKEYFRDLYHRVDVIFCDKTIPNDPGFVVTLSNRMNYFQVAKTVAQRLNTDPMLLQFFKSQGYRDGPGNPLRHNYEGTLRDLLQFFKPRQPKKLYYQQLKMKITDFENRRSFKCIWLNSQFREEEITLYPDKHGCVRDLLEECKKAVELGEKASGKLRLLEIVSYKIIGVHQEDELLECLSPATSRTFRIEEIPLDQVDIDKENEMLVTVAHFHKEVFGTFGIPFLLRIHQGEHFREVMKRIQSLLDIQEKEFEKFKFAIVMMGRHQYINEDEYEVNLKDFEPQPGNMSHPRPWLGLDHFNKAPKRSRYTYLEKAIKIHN

biological target: Ubiquitin carboxyl-terminal hydrolase 7 (Homo sapiens) (UniProt Q93009); test: blocks human USP7 ubiquitin-rhodamine cleavage (AID 1645854); details: purified USP7, Ub-rhodamine cleavage fluorescence; at 20 µM; hits give high values

Row | SMILES | inhibition
1 | O=C(COC(=O)C(O)(c1ccccc1)c1ccccc1)NCc1ccc2c(c1)OCO2 | inactive: -9.46%
2 | O=C(c1ccc2c(c1)OCO2)N(Cc1ccco1)C1CCN(CCc2ccccn2)CC1 | inactive: -8.37%
3 | COc1ccc(CCN2CCC(N(Cc3cccnc3)C(=O)c3cccc(C#N)c3)CC2)cc1 | inactive: -10.9%
4 | Cc1[nH]c2c(N(C(=O)Nc3ccccc3)C3CCN(Cc4ccccc4)CC3)cccc2c1C | inactive: -5.21%
5 | N#Cc1cccc(C(=O)N(Cc2ccco2)C2CCN(CCc3ccc(Cl)cc3)CC2)c1 | inactive: -13.3%
6 | COc1ccc(CCN2CCC(N(Cc3ccco3)C(=O)c3ccc(S(C)(=O)=O)cc3)CC2)cc1 | inactive: -10.1%
7 | CN1C(=O)C2C(NC(=NCc3ccco3)N2CCc2ccccc2)N(C)C1=O (stereo unspecified) | inactive: -1.92%
8 | N#Cc1cccc(C(=O)N(Cc2ccco2)C2CCN(CCc3ccccn3)CC2)c1 | inactive: 0.00896%
9 | CS(=O)(=O)c1ccc(C(=O)N(Cc2cccnc2)C2CCN(CCc3ccc(Cl)cc3)CC2)cc1 | inactive: -26.5%
10 | CS(=O)(=O)c1ccc(C(=O)N(Cc2ccco2)C2CCN(CCc3ccccn3)CC2)cc1 | inactive: -8.56%
11 | N#Cc1cccc(C(=O)N(Cc2cccnc2)C2CCN(CCc3ccccn3)CC2)c1 | inactive: -5.8%
